Biological target: T1, hNav1.6 (Homo sapiens, UniProt Q9UQD0)
T1 construct: expressed in transfected cells; host or cells: CHO
Test: Automated planar whole-cell patch clamp (Patchliner), hSCN8A CHO cells
Format: cell-based
Conditions: concentrations tested up to 50 nM
Description: To characterize the functional activity of Hm1a and Hm1b, HEK293T cells stably transfected with either hSCN1A, hSCN2A, hSCN3A, hSCN5A, hSCN9A or hSCN10A as well as CHO cells stably transfected with hSCN4A or hSCN8A were used for whole-cell patch-clamp analysis with a high throughput automated planar patch-clamp technology.
HEK293T cells stably transfected with either hSCN1A, hSCN2A, hSCN3A, hSCN5A, hSCN9A or hSCN10A were maintained in Dulbecco's Modified Eagle's Medium Nutrient Mixture F-12 (Invitrogen, Carlsbad, Calif., USA) supplemented with 10% (v/v) foetal bovine serum (FBS) (Invitrogen), 0.9% Penicillin/Streptomycin (P/S) solution and 100 μg/mL hygromycin or 100 μg/mL neomycin. CHO cells stably transfected with hSCN4A or hSCN8A were maintained in Ham's F12 Nutrient Mixture (Invitrogen, Carlsbad, Calif., USA) supplemented with 10% (v/v) FBS, 0.9% P/S solution and 100 μg/mL hygromycin. All cells were grown in T75 flasks (BD Biosciences, San Jose, Calif., USA) to ˜70% confluency.
Patch-clamp recordings were conducted in the whole-cell configuration using a Patchliner® (Nanion Technologies, Munich, Germany). […]

The chains behind the UniProt entries cited, without tags or fusion partners.
UniProt Q9UQD0, whole entry: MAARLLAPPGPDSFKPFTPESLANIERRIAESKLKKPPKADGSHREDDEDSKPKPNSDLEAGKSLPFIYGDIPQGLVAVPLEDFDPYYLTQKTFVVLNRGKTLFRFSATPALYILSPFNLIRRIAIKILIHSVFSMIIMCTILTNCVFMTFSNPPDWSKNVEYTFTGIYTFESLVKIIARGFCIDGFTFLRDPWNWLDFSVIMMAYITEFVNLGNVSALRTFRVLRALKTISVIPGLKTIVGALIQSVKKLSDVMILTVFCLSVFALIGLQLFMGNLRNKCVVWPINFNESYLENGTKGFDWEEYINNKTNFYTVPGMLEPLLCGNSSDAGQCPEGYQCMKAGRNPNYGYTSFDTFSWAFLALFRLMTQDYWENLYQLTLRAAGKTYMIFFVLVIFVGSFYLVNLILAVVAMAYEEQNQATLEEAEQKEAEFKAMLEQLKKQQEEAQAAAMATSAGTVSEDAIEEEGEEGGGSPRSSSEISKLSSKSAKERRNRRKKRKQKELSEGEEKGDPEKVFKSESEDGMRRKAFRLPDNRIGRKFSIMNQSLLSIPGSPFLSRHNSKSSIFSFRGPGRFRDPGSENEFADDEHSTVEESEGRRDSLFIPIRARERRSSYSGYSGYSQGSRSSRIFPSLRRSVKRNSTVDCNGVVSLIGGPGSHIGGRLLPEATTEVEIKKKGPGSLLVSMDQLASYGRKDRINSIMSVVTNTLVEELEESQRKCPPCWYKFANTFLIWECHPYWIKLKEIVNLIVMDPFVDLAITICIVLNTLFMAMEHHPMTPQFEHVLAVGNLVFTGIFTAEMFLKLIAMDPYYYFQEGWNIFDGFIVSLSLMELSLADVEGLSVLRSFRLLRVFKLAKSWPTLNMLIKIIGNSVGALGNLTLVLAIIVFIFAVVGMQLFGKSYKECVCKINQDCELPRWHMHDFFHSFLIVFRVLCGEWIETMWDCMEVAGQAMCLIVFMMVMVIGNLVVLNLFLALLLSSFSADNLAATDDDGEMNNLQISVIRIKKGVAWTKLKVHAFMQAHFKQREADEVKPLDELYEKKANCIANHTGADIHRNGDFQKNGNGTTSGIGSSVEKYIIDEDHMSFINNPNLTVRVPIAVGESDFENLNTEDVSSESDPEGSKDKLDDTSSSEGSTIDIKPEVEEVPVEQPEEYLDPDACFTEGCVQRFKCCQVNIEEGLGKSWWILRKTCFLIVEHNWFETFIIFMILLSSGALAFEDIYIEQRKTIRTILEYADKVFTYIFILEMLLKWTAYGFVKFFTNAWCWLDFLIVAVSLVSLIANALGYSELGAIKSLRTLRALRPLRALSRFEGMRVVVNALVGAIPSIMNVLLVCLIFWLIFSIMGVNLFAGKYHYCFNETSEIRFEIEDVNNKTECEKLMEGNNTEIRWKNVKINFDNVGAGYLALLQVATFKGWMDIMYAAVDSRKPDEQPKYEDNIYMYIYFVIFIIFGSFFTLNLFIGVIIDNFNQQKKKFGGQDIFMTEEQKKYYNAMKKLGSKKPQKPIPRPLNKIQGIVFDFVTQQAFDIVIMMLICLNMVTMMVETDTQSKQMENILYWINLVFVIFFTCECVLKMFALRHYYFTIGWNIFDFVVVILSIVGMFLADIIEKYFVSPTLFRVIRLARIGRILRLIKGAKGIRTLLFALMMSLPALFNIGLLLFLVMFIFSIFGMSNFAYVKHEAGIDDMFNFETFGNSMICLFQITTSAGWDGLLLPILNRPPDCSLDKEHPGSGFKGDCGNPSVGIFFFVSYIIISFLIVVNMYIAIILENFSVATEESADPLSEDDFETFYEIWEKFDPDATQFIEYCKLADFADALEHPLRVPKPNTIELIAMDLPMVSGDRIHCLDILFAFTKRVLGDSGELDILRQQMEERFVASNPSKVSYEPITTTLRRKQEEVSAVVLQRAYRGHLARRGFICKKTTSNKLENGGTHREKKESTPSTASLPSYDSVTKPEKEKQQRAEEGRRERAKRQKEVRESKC

Compound: CC(C)C[C@@H]1NC(=O)[C@H](Cc2ccc(O)cc2)NC(=O)[C@H](CCCNC(=N)N)NC(=O)[C@@H](NC(=O)[C@@H](N)CCC(=O)O)CSSC[C@@H]2NC(=O)[C@@H]3CSSC[C@@H](C(=O)N[C@@H](C)C(=O)N[C@@H](Cc4c[nH]c5ccccc45)C(=O)N[C@@H](CC(=O)O)C(=O)NCC(=O)N[C@H](C(=O)N[C@@H](Cc4ccccc4)C(=O)N[C@@H](CO)C(=O)O)[C@@H](C)O)NC(=O)[C@H](Cc4ccc(O)cc4)NC(=O)[C@H](CCCCN)NC(=O)[C@H](Cc4c[nH]c5ccccc45)NC(=O)[C@H](CC(=O)O)NC(=O)[C@H](CO)NC(=O)[C@H](CCCNC(=N)N)NC(=O)[C@H](CSSC[C@H](NC(=O)CNC(=O)CNC(=O)[C@H](Cc4ccccc4)NC1=O)C(=O)N[C@@H](CO)C(=O)N[C@@H](CO)C(=O)N[C@@H]([C@@H](C)O)C(=O)N[C@@H](CO)C(=O)N[C@@H](CC(=O)O)C(=O)N3)NC(=O)[C@H](CO)NC(=O)[C@H](CC(C)C)NC(=O)[C@H](Cc1c[nH]cn1)NC(=O)[C@H](CCCCN)NC2=O [Hm1a]
- effect on hNav1.6 current: no effect

Source: patent US11124550B2, “Proteinaceous molecules and methods of use” (priority 2015, dated 2021)
